Measured values published in patent publication US8314126B2, “Disubstituted phenylpiperdines/piperazines as modulators of dopamine neurotransmission” (NSAB, Filial af Neurosearch Sweden AB, Sverige, priority 2004, dated 2012).

System: Rats pre-treated with d-amphetamine
Assay: animal or person
Details: Rattus norvegicus, read-out: ED50 reduction of amphetamine-induced hyper-locomotion

Row | SMILES | ED50 [µmol/kg]
1 | OCCCN1CCC(c2cccc(C(F)(F)F)c2F)CC1 | 12.4
2 | CCN1CCC(c2cccc(S(C)(=O)=O)c2F)CC1 [drawing 42] | 28
